# Experimental data reported in PubChem BioAssay AID1645858 (Buhrlage Lab, Dana-Farber Cancer Institute and Novartis …, 2021).
# The chains behind the UniProt entries cited, without tags or fusion partners.
# UniProt Q5T2D3, whole entry: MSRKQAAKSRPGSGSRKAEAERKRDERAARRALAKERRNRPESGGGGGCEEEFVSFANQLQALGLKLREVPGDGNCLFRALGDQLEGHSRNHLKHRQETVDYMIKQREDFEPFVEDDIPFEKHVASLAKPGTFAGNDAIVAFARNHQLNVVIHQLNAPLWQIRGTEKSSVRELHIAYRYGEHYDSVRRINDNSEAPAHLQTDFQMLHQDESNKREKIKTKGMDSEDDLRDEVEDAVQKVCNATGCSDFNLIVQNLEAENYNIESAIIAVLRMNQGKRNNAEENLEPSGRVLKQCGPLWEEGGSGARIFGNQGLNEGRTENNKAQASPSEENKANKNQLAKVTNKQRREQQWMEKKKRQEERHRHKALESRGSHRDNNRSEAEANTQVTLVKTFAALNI
# This is a selection; strong and weak results do not stand in their true shares. Active and inactive are the calls of the source. No stated cut-off is given here; in the data, active means inhibition above about 30%; inactive means the rest.
# Biological target: OTU domain-containing protein 3 (Homo sapiens) (UniProt Q5T2D3)
# Assay: blocks human OTUD3 ubiquitin-rhodamine cleavage (AID 1645858)
# Details: purified OTUD3, Ub-rhodamine fluorescence, 2 h; at 25 µM; active compounds read high
row,SMILES,inhibition
1,O=C(NCC1(N2CCCCC2)CCCCC1)c1ccc2ncsc2c1,inactive: -8.57%
2,Cc1ccccc1C(=O)NCC1(N2CCOCC2)CCCCC1,inactive: -9.67%
3,Cc1cc(C(=O)NCC2(N3CCOCC3)CCCCC2)c2ccccc2n1,inactive: 10.1%
4,O=C(NCC1(N2CCOCC2)CCCCC1)c1ccccc1Cl,inactive: -6.77%
5,O=C(NCC1(N2CCCCC2)CCCCC1)c1ccc(F)cc1,inactive: -42.8%
6,CC1CN(CCc2ccccc2)CCC1=O (stereo not drawn),inactive: 8.21%
7,CN(C)c1ccc(C(=O)NCC2(N3CCCCC3)CCCCC2)cc1,inactive: -1.96%
8,N#Cc1ccc(C(=O)NCC2(N3CCCCC3)CCCCC2)cc1,inactive: -11.3%
